Results taken from PubChem BioAssay AID485314 (National Center for Advancing Translational Sciences (NCATS), 2010).
Most of the hits are listed elsewhere, so they are rarer here than in the full data. Results filed as inconclusive are left out. Calls of active or inactive are those of the source. Calls follow the shape of the dose curve; as a rule, active = well fitted inhibition curve with a large enough effect; inconclusive = small, poorly fitted or top-dose-only effect, or another doubt; inactive = no such curve, though single readings can be large or run the other way.
% is scaled to controls: 0 for no effect and ±100 for the full control effect.

Each compound was assayed against DNA polymerase beta (Homo sapiens) (UniProt P06746) (assay: qHTS Assay for Inhibitors of DNA Polymerase Beta). Settings: Pol beta primer extension/strand displacement, fluorescence kinetic; at 114 µM (top of the series).
Text: The base excision repair system in human cells is a target for therapeutic modulation of the response to irradiation treatment and DNA-damaging drugs. A key enzyme in this system is the bi-functional DNA polymerase known as DNA polymerase Beta (Pol Beta). The following is a homogeneous kinetic assay to study the primer extension and strand-displacement reaction catalyzed by pol beta.
A stepwise description of the 1536-well assay is shown in next Table. Three microliters of reagents (buffer in column 3 and 4 as negative control and 10 nM Pol beta in columns 1, 2, and 5-48) was dispensed into 1,536-well black solid-bottomed plate. Compounds (23 nL) were transferred via Kalypsys pin tool equipped with 1536-pin array (10 nL slotted pins, V&P Scientific, San Diego, CA). The plates were incubated for 15 min at room temperature, and 1 uL substrate (50 nM final concentration) were added to start the reaction and immediately read at 0 min read on Viewlux reader. The plate were further incubated for 10 min at room temperature, and then read on Viewlux again. Throughout the screen, reagent bottle and all liquid lines were chilled and made light-tight to minimize reagent degradation. All screening operations were performed on a fully integrated robotic system (Kalypsys, San Diego, CA) containing one RX-130 and two RX-90 anthropomorphic robotic arms (Staubli, Duncan, SC). […]
In the case of `C=C(C)[C@@H]1CC[C@]2(C(=O)O)CC[C@]3(C)C(CCC4[C@@]5(C)CC[C@H](O)C(C)(C)C5CC[C@]43C)C12` (stereo partly specified), the activity change, negative = inhibition is reported as inactive: 17.9%.
